Earlier results on one substance are cited in US7238658B2 (Genentech, Inc., priority 2001, dated 2007).

Sequences of proteins named here, by UniProt entry; tags and fusion partners are left off. Residues count along the entry.
UniProt P08069, 741-1367 partner limits assumed: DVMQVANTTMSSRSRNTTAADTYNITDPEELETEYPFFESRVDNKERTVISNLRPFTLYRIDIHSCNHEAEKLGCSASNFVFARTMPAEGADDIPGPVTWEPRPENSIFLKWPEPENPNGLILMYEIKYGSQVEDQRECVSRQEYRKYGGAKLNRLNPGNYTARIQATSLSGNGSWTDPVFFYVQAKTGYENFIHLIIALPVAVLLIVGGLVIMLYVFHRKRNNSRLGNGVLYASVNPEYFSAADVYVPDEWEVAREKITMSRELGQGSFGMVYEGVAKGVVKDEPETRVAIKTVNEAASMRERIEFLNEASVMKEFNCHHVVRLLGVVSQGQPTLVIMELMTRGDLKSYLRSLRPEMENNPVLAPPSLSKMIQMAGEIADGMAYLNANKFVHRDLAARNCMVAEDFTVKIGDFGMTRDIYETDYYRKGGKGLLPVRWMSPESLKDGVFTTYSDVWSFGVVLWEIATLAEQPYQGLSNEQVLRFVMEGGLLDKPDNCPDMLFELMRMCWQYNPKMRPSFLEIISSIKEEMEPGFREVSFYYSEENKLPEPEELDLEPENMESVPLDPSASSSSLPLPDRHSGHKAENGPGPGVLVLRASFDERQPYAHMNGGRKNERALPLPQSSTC
UniProt P08069, 31-736 limits assumed: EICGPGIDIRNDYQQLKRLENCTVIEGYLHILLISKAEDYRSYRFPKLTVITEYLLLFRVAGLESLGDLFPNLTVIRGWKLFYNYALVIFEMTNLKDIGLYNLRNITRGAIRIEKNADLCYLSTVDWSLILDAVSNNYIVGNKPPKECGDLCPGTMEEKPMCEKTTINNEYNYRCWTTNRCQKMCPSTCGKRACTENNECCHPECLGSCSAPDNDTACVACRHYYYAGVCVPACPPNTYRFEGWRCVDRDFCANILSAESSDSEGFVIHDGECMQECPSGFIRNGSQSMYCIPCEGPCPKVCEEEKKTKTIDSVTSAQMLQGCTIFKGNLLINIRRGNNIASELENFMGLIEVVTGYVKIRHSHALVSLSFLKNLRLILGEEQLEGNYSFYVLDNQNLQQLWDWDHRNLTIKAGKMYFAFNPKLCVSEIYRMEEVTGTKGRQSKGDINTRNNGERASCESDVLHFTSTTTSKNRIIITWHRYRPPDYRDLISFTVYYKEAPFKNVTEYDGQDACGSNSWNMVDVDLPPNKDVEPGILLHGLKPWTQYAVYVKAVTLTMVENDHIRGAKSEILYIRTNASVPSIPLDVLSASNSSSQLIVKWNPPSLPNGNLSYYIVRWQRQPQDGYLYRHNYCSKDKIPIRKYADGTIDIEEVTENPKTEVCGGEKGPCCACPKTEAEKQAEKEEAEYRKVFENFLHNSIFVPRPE

For the series, the target named is IGF-1R (Homo sapiens, UniProt P08069). The following applies: read-out: Kd, low affinity site of IGF-1R; cited from earlier work.

In the case of “IGF-1: human insulin-like growth factor-1, native mature sequence (SEQ ID NO: 1), recombinant from E. coli”, the Kd (usually a measure of binding affinity in units of concentration) was ~6 nM.
